# Tested on: Pseudomonas aeruginosa (ATCC strain 9027)
# Assay type: cell-based
# Conditions: summary in description
# Method: Bacterial Stocks—ATCC derived stock bacteria were obtained from Oxoid Limited. Pseudomonas aeruginosa (ATCC strain 9027) or Staphylococcus aureus (ATCC strain 6538P) were obtained in ‘Cultiloop’ format. Stocks were prepared by inoculating 20 ml of LB broth with a single Cultiloop, and incubating overnight at 37° C. Cells present after overnight incubation were harvested by removing larger aggregates by centrifugation (3000 g, 10 minutes), and withdrawing 16 ml of the supernatant, which was likely to contain mainly planktonic bacteria. To this, 4 ml of sterile glycerol was added (the latter having been sterilised by autoclaving). […]
# The peptides were examined for antibacterial efficacy against Staphylococcus aureus. […] A vial of planktonic bacterial stock was thawed in a 37° C. incubator and diluted to the level previously determined which would produce log phase growth after overnight incubation (see above). […] After overnight growth, the concentration of bacteria in individual wells was assessed by measuring absorbance at 620 nm, in a microplate spectrophotometer. The average absorbance of wells for specific concentrations of peptides was calculated, and from this the percentage inhibition (relative to untreated wells) was also calculated and plotted against concentration (along with an estimate of error on that % inhibition). […]
smiles,measurement,value
CC(C)C[C@H](NC(=O)[C@H](CC(C)C)NC(=O)[C@H](CCCNC(=N)N)NC(=O)[C@H](CCCCN)NC(=O)[C@H](CCCNC(=N)N)NC(=O)[C@H](CC(C)C)NC(=O)[C@H](CCCCN)NC(=O)[C@H](CCCNC(=N)N)NC(=O)[C@H](CC(C)C)NC(=O)[C@H](Cc1c[nH]cn1)NC(=O)[C@H](CO)NC(=O)[C@H](C)NC(=O)[C@H](CC(C)C)NC(=O)[C@H](CCCNC(=N)N)NC(=O)[C@@H](NC(=O)[C@H](CCCNC(=N)N)NC(=O)[C@H](CC(C)C)NC(=O)[C@H](CCC(=O)O)NC(=O)[C@H](CCC(=O)O)NC(=O)[C@@H](NC(=O)[C@H](CO)NC(=O)[C@@H](N)CCC(N)=O)[C@@H](C)O)C(C)C)C(N)=O [GIN 11],"Effectiveness against Pseudomonadales, in particular P. aeruginosa, in words",particularly effective
